From PubChem BioAssay AID902 (National Center for Advancing Translational Sciences (NCATS), 2007) come the findings set out here.

Only a part is listed here, and it is no random draw. Results filed as inconclusive are left out. Activity calls are given as the source filed them. Calls come from the whole dose curve; as a rule, active = well fitted cell-killing curve with a large enough effect; inconclusive = small, poorly fitted or top-dose-only effect; inactive = no such curve, though single readings can be large or run the other way.
Potency is the fitted concentration of half-maximal effect.

This assay in a line: qHTS Screen for Compounds that Selectively Target Cancer Cells with p53 Mutations: Cytotoxicity of p53ts Cells at the Nonpermissive Temperature. Note: nearly all actives have a fitted effect of over 55% in size. Particulars: H1299-p53A138V viability at 39C, ATP luminescence, 24 h. (In general: Quantitative high-throughput screening tests each substance at several concentrations.)
As to `C=CC(=O)OCCOCCOCCOCCOC(=O)C=C`, the Potency was active: 31.6 µM. With `CNCCCCCCCCSc1nc(C(C)C)ccc1C(=O)c1cccs1` the figure was active: 31.6 µM.
